Values quoted from earlier work, collected in patent US20200224136A1, “INTESTINE-CHIP: DIFFERENTIAL GENE EXPRESSION MODEL” (priority 2019, published 2020).

Columns and labels:
[1] = target: T1, human PXR (hPXR) (Homo sapiens, UniProt O75469); conditions: cited from earlier work
T1 sequence (O75469 1-434): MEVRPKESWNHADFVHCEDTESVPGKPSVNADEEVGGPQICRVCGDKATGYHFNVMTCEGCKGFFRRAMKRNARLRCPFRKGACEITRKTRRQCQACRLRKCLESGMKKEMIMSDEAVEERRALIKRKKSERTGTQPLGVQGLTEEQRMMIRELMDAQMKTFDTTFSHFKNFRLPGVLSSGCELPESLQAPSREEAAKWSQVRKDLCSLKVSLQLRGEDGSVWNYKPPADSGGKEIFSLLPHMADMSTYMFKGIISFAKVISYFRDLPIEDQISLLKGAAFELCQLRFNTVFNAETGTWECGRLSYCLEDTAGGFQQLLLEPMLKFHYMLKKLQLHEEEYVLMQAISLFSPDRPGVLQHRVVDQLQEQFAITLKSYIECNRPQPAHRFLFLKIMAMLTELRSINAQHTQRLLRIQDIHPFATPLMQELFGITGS

[2] = target: T2, mouse PXR (mPXR) (Mus musculus, UniProt O54915); conditions: cited from earlier work
T2 sequence (O54915 1-431): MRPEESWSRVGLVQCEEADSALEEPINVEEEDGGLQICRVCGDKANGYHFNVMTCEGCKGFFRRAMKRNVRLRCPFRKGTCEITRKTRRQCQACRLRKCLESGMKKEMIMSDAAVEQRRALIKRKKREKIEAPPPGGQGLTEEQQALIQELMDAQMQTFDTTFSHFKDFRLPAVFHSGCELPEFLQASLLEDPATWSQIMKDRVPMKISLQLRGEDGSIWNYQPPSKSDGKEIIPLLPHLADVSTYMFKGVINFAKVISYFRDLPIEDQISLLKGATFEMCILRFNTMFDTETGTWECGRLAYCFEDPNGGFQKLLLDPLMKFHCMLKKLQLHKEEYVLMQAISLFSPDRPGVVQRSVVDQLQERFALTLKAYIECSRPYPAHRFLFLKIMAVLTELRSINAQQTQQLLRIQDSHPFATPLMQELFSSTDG

## rifampicin
[1]
  agonism at human PXR: potent agonists
[2]
  agonism at mouse PXR: not for mouse PXR
